The results in this text go back to US20020187514A1, “Identification of molecular targets useful in treating substance abuse and addiction” (priority 1999, published 2002).

By UniProt entry, the sequences of proteins in these tests, tags left out. Where a name states a change or a piece, a line headed by the entry shows the natural chain unless it says otherwise.
UniProt P41144: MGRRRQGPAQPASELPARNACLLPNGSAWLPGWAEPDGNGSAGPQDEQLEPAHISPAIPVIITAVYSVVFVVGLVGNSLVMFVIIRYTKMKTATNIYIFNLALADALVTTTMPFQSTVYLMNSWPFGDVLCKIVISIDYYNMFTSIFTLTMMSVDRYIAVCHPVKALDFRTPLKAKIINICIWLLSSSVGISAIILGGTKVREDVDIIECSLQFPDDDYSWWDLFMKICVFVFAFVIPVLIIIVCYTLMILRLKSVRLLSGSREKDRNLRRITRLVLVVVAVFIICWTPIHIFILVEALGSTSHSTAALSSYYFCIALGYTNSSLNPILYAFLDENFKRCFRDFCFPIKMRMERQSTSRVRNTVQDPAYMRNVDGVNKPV

The structures appear in SMILES notation.

The test concerns the target Opiate, Kappa 1 (UniProt P41144). The test can be described thus: Opiate, Kappa 1; [3H]U-69593. It counts as binding. The conditions noted are these: read-out: Ref Kj; reference compound, QA/QC.

On to `CN(C(=O)Cc1ccccc1)[C@H]1CC[C@@]2(CCCO2)C[C@@H]1N1CCCC1`, for which the Ki worked out at 0.411 nM.
